Measurements: publication PMC3124361 (Journal of medicinal chemistry, 2011)

Columns and labels:
[1] = biological target: T1, PfDHODH (Plasmodium falciparum, UniProt Q08210); conditions: read-out: IC50 against the enzyme; initial lead; ref [15]; cited from earlier work
T1 sequence (Q08210 158-569 limits assumed): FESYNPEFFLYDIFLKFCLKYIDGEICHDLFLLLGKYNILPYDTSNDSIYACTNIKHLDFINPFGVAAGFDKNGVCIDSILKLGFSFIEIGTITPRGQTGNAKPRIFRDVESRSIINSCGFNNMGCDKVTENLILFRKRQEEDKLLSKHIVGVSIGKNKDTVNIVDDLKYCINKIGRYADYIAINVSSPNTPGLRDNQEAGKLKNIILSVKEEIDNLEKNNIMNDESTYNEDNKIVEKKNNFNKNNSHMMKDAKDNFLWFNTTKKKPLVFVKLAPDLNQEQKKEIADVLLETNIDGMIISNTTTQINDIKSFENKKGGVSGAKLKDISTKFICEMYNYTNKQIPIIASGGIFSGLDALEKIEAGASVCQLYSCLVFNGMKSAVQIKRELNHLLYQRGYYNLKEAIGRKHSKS

[2] = biological target: T1, PfDHODH; experiment: PfDHODH DCIP dye-based enzyme assay; type: biochemical; conditions: 33 vs 49, 34 vs 45

Structure (SMILES)	IC50 [1]	fold more potent than equivalent analog with cycloalkyl ring bound to N1 [2]
Cc1cc(Nc2ccc3ccccc3c2)n2ncnc2n1 [Compound 1, (5-methyl-[1,2,4]triazolo[1,5-a]pyrimidin-7-yl)-naphthalen-2-yl-amine]	0.05 to 0.1 µM	
Cc1cc(Nc2ccc3c(c2)CCC3)n2ncnc2n1 [Compound 34, N-(2,3-dihydro1H-inden-5-yl)-5-methyl-[1,2,4]triazolo[1,5-a]pyrimidin-7-amine]		2 fold
Cc1cc(Nc2ccc3c(c2)CCCC3)n2ncnc2n1 [Compound 33, 5-methyl-N-(5,6,7,8-tetrahydronaphthalen-2yl)-[1,2,4]triazolo[1,5-a]pyrimidin-7-amine]		15 fold
